Measured values from patent US7381744B1, “Method of treating osteoporosis comprising vacuolar-type (H+)-ATPase-inhibiting compounds” (The United States of America as represented by the …, priority 1999, dated 2008).

Tested on: mammalian vacuolar-type (H+)-ATPase (from chromaffin granule membranes)
Experiment: mammalian vacuolar-type (H+)-ATPase inhibition, side-by-side test
Type: biochemical
Conditions: mammalian versus fungal enzyme

CC/C=C\C=C/C(=O)N/C=C/CC1CC(O)C(C)C/C=C/Cc2cccc(O)c2C(=O)O1 (stereo not shown) [salicylihalamide A]
selectivity for mammalian versus fungal vacuolar-type (H+)-ATPase: highly selective
